Tested on: pErk, pMek and pRaf-1 in MCF-7/C6 cells
Assay: Western blot of proliferation proteins
Type: cell-based, human
Conditions: 36 h; NPs 50 μM, Herceptin 15 μg/mL

Herceptin: anti-HER2 antibody used as positive control
phosphorylation level of Erk, Mek and Raf-1: strongly inhibit

Reference: article PMC7147967 (Nature nanotechnology, 2020)
